Values quoted from earlier work as cited in paper PMC3606385 (PLoS ONE, 2013).

Amino acid sequences for entries named in this document (tags omitted). A change or cut given only in a name is not applied to a line headed by its entry.
UniProt P28845: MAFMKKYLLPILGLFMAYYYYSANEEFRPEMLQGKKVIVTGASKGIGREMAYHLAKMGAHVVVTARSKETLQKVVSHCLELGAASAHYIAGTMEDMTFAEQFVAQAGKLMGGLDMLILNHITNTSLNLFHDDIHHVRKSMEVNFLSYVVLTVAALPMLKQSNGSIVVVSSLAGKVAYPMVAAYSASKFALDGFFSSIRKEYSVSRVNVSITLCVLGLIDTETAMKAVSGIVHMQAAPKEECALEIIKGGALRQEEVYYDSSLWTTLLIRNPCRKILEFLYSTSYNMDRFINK

Key:
Human 11β-HSD1 = biological target: T1, Human 11β-HSD1 (Homo sapiens, UniProt P28845); conditions: human enzyme; cited from earlier work
T1 construct: expressed in transfected cells; host or cells: CHOP cells (transient, FuGENE)

Human 11β-HSD2 = biological target: T2, Human 11β-HSD2 (Homo sapiens, UniProt P80365); conditions: cited from earlier work
T2 construct: The rat and human kidney microsomes were used for 11β-HSD2 sources; tissue Gentest (Woburn, MA); host or cells: human kidney microsomes
T2 sequence (P80365 1-405): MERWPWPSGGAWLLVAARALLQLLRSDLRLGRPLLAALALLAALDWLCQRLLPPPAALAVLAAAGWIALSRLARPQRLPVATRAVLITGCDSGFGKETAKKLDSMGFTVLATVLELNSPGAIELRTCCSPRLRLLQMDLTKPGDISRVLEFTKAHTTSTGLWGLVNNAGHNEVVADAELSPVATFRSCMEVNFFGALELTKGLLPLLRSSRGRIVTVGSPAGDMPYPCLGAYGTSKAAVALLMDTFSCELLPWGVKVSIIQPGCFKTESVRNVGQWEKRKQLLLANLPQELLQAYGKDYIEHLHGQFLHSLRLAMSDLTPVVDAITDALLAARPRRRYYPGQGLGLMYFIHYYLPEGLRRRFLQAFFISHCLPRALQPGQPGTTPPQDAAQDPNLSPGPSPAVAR

For BVT2733, the IC50 (Human 11β-HSD1) is given as 3.3 µM and the “Selectivity over human 11β-HSD2” value (Human 11β-HSD2) is given as “more than 200 fold”.
